{"sequences": {"note": "The chains behind the UniProt entries cited, without tags or fusion partners. Where a name states a change or a piece, a line headed by the entry shows the natural chain unless it says otherwise.", "UniProt Q8TEK3": "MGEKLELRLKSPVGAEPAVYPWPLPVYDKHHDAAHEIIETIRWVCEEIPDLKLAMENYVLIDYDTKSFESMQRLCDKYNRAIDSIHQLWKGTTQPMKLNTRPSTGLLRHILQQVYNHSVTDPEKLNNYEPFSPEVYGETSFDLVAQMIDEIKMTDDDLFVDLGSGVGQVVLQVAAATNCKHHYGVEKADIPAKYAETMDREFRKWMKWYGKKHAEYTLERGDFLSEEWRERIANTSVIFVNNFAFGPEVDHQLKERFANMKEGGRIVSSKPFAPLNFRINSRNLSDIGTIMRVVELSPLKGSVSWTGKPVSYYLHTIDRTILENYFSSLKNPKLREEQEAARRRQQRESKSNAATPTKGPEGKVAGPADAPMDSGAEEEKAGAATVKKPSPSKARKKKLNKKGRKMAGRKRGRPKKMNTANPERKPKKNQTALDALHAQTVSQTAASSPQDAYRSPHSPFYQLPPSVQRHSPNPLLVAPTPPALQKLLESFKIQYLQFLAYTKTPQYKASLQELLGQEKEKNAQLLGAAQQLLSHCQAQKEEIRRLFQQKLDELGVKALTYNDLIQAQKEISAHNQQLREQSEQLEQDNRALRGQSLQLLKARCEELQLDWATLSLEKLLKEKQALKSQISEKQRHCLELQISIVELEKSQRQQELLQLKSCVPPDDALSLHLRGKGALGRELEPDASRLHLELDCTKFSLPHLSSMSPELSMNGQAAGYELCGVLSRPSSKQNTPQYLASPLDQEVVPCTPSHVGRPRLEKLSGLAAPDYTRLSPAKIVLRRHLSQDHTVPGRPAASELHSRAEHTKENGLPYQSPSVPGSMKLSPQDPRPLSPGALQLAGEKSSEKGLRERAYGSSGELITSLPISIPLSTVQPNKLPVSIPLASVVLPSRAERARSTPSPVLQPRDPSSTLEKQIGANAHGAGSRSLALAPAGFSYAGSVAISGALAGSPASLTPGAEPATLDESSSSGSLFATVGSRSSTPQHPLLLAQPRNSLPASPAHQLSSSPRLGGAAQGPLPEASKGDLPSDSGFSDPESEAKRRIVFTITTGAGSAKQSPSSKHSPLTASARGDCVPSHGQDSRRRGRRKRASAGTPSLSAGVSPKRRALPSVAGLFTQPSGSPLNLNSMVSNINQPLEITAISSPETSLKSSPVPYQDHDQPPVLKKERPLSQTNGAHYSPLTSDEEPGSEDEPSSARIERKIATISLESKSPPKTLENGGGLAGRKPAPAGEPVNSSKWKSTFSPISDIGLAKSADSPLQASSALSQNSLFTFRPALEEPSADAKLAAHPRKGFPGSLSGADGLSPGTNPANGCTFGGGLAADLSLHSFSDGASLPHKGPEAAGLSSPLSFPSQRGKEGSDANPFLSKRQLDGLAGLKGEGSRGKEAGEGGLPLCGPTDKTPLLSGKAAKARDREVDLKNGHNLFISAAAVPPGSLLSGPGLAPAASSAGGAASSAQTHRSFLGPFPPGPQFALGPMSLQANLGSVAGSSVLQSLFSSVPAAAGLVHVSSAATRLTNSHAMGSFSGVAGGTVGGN"}, "source": "paper PMC6318333", "about": "“A chemical biology toolbox to study protein methyltransferases and epigenetic signaling” (Nature Communications, 2019)", "target": "DOT1L (Homo sapiens, UniProt Q8TEK3)"}
{"smiles": "CC(C)N(CCCNC(=O)Nc1ccc(C(C)(C)C)cc1)C[C@H]1O[C@@H](n2cc(Br)c3c(N)ncnc32)[C@H](O)[C@@H]1O", "note": "[SGC0946]", "values": [{"measurement": "competition chemoproteomics (LFQ MS) in Jurkat cell lysate", "value": "Chemoproteomic analysis of the DOT1L inhibitor SGC0946 in Jurkat cell lysates indicated that the probe is highly specific for DOT1L"}]}
